These are literature values, as cited in US9951014B2, “Mammalian and bacterial nitric oxide synthase inhibitors” (Northwestern University, priority 2014, dated 2018).

Amino acid sequences for entries named in this document (tags omitted). Residues count along the entry.
UniProt P29473, 39-482: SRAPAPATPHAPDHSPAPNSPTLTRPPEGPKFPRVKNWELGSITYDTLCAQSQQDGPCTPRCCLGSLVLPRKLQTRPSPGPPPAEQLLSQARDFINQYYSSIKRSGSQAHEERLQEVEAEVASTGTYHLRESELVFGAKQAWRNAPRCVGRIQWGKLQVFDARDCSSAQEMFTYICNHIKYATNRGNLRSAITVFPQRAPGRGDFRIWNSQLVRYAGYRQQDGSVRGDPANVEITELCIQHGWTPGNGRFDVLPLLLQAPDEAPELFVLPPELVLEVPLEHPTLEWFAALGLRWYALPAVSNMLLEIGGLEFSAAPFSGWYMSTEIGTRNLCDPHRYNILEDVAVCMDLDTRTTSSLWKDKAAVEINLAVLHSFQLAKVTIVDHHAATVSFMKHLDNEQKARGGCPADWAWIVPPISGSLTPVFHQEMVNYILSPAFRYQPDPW

This series deals with eNOS (Bos taurus (Bovine), UniProt P29473). The following applies: literature data (footnotes a, c); read-out: KS eNOS; cited from earlier work.

As to `N=C(NCCC[C@H](N)C(=O)O)N[N+](=O)[O-]` [L-NNA, N^ω-nitro-L-arginine, reference compound], the Kd was 100 nM.
